Compound activity from PubChem BioAssay.
Sampled rows, rich in hits. Any-hit rate of the full collection: about 1.6%.
PglD inh: PglD (C. jejuni) enzyme inhibition. 360,000 tested, 0.098% active. inhibition, % at 12.5 µM. AID 602405. purified PglD enzyme, DTNB colorimetric CoA detection; in the data active = inhibition above about 16%, passing the limit was not always enough
ARNT-TACC3 inh: ARNT/TACC3 interaction disruption; Q9Y6A5; AlphaScreen His-ARNT PAS-B/GST-TACC3 binding, luminescence; TACC3 fragment carries E629A point mutation; inhibition, % at 9.99 µM; 390,000 tested, 0.66% active; AID 623870;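 active = mean inhibition of replicates at least 50% and at least half of replicates each reaching 50%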;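 note: 0% = complete ARNT plus TACC3 wells and 100% = ARNT alone without TACC3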
Vif imaging: blocks HIV Vif function. HEK293T cells, Vif self-association by quenched fluorescence, imaging, 24 h. inhibition, % at 7.49 µM. 340,000 tested, 0.35% active; in the data active = inhibition above about 50%, passing the limit was not always enough
Yeast UUG start-1: alters start codon recognition fidelity in yeast. S. cerevisiae UUG-firefly luciferase reporter, luminescence/redox ratio. activity score, % at 18.7 µM. 0.13% of 350,000 active. AID 602363;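 active = replicate mean at a twofold rise or more, about +100% in these data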;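 also: firefly luciferase made from a UUG start codon reports start codon fidelity; reporter light over untreated wells divided by growth signal over untreated wells; some hits fall short of that in this replicate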
CAL PDZ FP-1: human CAL PDZ-peptide interaction inhibition. 330,000 tested, 0.02% active. AID 504414. purified CAL PDZ, TMR-peptide fluorescence polarization, 1 h. inhibition, % at 20 µM. Q9HD26;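 active = highest replicate inhibition of at least 40%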;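 note: plate controls were DMSO neutral control wells for no effect and unlabeled competitor peptide control wells for full effect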
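Material – purified CerCALP PDZ construct · Detection – FP readout, S and P plane fluorescence · Measure – percent inhibition from loss of millipolarization · Controls – unlabelled peptide for full inhibition, DMSO wells as neutral · Probe or stimulus – TMR-labelled reporter peptide T*-PRC34 bound in PDZ groove · Times – 1 h at RT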
CAL PDZ FP-2: blocks peptide binding to the human CAL PDZ domain; purified CAL PDZ, TMR-peptide fluorescence polarization, 1 h; inhibition, % at 24.9 µM; 300,000 tested, 0.92% active;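 active = mean inhibition of at least 30% with at least half of replicates also reaching 30%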;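 note: 0% = DMSO neutral control and 100% = excess unlabeled competitor peptide PRC23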
Yeast UUG start-2: alters UUG start codon use in yeast; shares compounds with Yeast UUG start-1; S. cerevisiae UUG-start firefly luciferase, luminescence, 4 h; 100% means double the DMSO signal; activation, % at 38 µM; 540 tested, under 10 active;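 active = signal increase whose fitted curve reaches an absolute level of 40 at a concentration under 10 µM; inactive = activity opposite to the expected increase, or the rest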
PglD inh SP: PglD (C. jejuni) inhibition confirmation; shares compounds with PglD inh; Purified C. jejuni PglD, DTNB absorbance 412 nm; inhibition, % at 20 µM; 320 tested, under 10 active;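 active = mean inhibition across replicates of at least 20% with every single replicate also at 20% or more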;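 note: initial rate of CoA release by acetyl transfer from AcCoA to the UDP-4-amino sugar; 0% = median of neutral control wells and 100% = median of positive control wells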
ARNT Alpha ctr: interferes with AlphaScreen signal, flagging false ARNT-TACC3 hits | shares compounds with ARNT-TACC3 inh | His-ARNT PASB-GST AlphaScreen artifact counter-screen, luminescence | AID 651705 | 1,200 tested, 50% active | AC50, µM (titrated, usually from 68 µM), without a hit: top-dose activity change, negative = signal decrease;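 active = every separate test run was called active for a drop in luminescence, with AC50 within twice the top valid dose, actives reach about 71 µM in these data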
* hit, by the source's call; x = no result.

SMILES	PglD inh	ARNT-TACC3 inh	Vif imaging	Yeast UUG start-1	CAL PDZ FP-1	CAL PDZ FP-2	others
CCCCNC(=S)N1CCn2cccc2C1c1cccnc1 (stereo not given)	-1.0	0.1	5.5	-2.3	0.2	0.9
CNC(=S)N1CCn2cccc2C1c1cccnc1 (stereo not given)	-0.7	-0.4	14.3	15.1	6.7	77.7*
CCN(CC)C(=O)c1ccc(NC(=O)CCCSc2ccccc2)cc1	2.3	3.0	13.0	-7.6	-0.8	80.2*
CCN(CC)C(=O)c1ccc(NC(=S)NC(=O)CCc2ccccc2)cc1	1.0	1.9	-4.5	-25.9	-0.2	9.6
COC(=O)[C@H]1[C@H](CO)[C@H]2Cn3c(ccc(C4=CCCCC4)c3=O)[C@@H]1N2CC1CCCC1	-0.6	-6.5	x	12.7	x	x
FC(F)(F)c1ccccc1CCN1CCNCC1	5.3	-4.3	x	-14.2	0.8	32.9*
O=C(Nc1ccccc1F)OC1CN2CCC1CC2 (stereo not given)	0.1	0.9	-5.1	165.2*	-1.2	3.0	Yeast UUG start-2=1.8
O=C(Nc1ccccc1Cl)OC1CN2CCC1CC2 (stereo not given)	x	2.1	-10.3	x	-0.6	1.4
COC(=O)[C@@H]1[C@@H](CO)[C@@H]2Cn3c(ccc(-c4ccc(F)cc4)c3=O)[C@H]1N2Cc1cccnc1	3.1	0.2	x	x	x	x
CCCCOC(=O)C1=C(N)OC2=C(C(=O)CCC2)[C@]12C(=O)Nc1ccccc12	3.8	-7.9	x	125.3*	-2.2	2.0	Yeast UUG start-2=-0.5
CC(=O)NC1CC2CCC(C1)N2 (stereo not given)	4.5	-2.3	4.2	-14.9	0.9	1.5
CC(=O)NC1CC2CCCC(C1)N2 (stereo not given)	26.7*	1.6	-2.4	-21.2	-0.8	-1.5	PglD inh SP=-4.0
COC(=O)[C@@H]1[C@@H](CO)[C@@H]2Cn3c(ccc(-c4ccc(OC)cc4)c3=O)[C@H]1N2C(=O)c1ccccc1F	1.0	-2.2	x	x	x	x
C=CCn1c(O)c(C=NC2CCN(Cc3ccccc3)CC2)c(=O)[nH]c1=O	20.0*	-6.3	-0.8	-3.0	-1.0	x	PglD inh SP=-7.3
CCCC(C)C1C(C#N)=C(N)Oc2c1c(=O)oc1ccccc21 (stereo not given)	24.3*	-3.0	-3.1	0.3	-2.8	-5.0	PglD inh SP=-3.7
O=C(O)[C@@H]1[C@@H](CO)[C@@H]2Cn3c(ccc(-c4ccc(F)cc4)c3=O)[C@H]1N2CC1CCCCC1	2.6	0.8	x	x	x	x
Cc1cccc(NC(=O)C(C)N2CC=C(c3ccccc3)CC2)c1 (stereo not given)	x	62.2*	-1.4	x	-2.5	-4.1	ARNT Alpha ctr=-27.0%
CCOC(=O)c1cc2c(cn1)[C@H](CCO)NC2	4.5	58.6*	x	1.5	0.0	-3.5	ARNT Alpha ctr=-15.4%
CCOC(=O)c1cnc(N2CC2)nc1N	2.5	5.7	-2.3	-5.0	-0.3	-0.3
COC(=O)[C@H]1[C@H](CO)[C@H]2Cn3c(ccc(-c4cccc(OC)c4)c3=O)[C@@H]1N2CC1CC1	-0.7	-4.7	x	x	x	x
O=c1[nH]c(O)c(Cc2ccc3c(c2)OCO3)c(=O)[nH]1	x	23.2*	-1.4	x	-3.1	-1.1	ARNT Alpha ctr=7.2%
CCCNC(=O)[C@@H]1[C@@H](CO)[C@@H]2Cn3c(cccc3=O)[C@@H]2N1C	-0.5	2.9	x	x	x	x
CN1[C@@H]2c3cccc(=O)n3C[C@H]1[C@H](CO)[C@H]2C(=O)NCC1CC1	0.8	-2.3	x	x	x	x
CN(C)C1C(=O)C(C(N)=O)=C(O)C2(O)C(=O)C3=C(O)c4c(O)cccc4C(C)(O)C3CC12 (stereo not given)	-6.3	4.5	-1.3	-2.5	0.8	-1.4
CN(C)[C@@H]1C(=O)C(C(N)=O)=C(O)[C@@]2(O)C(=O)C3=C(O)c4c(O)cccc4[C@@](C)(O)C3[C@H](O)C12 (stereo not given in full)	3.4	44.6*	2.2	-9.8	1.1	-5.4	ARNT Alpha ctr=-1.2%
COc1cc2c(c(OC)c1OC)-c1ccc(O)c(=O)cc1[C@@H](NC(C)=O)CC2	1.4	68.9*	-3.2	-29.0	-0.2	0.8	ARNT Alpha ctr=-22.3%

Of the compounds above, these have four or more nitrogen atoms:
SMILES	PglD inh	ARNT-TACC3 inh	Vif imaging	Yeast UUG start-1	CAL PDZ FP-1	CAL PDZ FP-2	others
CCCCNC(=S)N1CCn2cccc2C1c1cccnc1 (stereo not given)	-1.0	0.1	5.5	-2.3	0.2	0.9
CNC(=S)N1CCn2cccc2C1c1cccnc1 (stereo not given)	-0.7	-0.4	14.3	15.1	6.7	77.7*
C=CCn1c(O)c(C=NC2CCN(Cc3ccccc3)CC2)c(=O)[nH]c1=O	20.0*	-6.3	-0.8	-3.0	-1.0	x	PglD inh SP=-7.3
CCOC(=O)c1cnc(N2CC2)nc1N	2.5	5.7	-2.3	-5.0	-0.3	-0.3
